Antibody variant affinities, Ab-14 light chain, assay B

Target peptide (SARS-CoV-2 spike, HR2 region): PDVDLGDISGINAS

Ab-14 is the parent antibody, in scFv form: VH, then a 15-residue (Gly4Ser)3 linker, then VL. The heavy chain is unchanged in all variants.
VH: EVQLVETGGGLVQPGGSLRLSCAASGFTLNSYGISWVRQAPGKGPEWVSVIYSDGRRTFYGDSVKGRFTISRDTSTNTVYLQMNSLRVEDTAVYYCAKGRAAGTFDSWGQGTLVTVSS
VL: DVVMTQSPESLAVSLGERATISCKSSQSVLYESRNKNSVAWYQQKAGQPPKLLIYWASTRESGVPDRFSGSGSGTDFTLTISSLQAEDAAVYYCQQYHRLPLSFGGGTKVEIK

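Phage display of a naive human antibody library on the peptide gave the parent. Designed CDR sequences, proposed from the first random library and measured here. Their group label is 14L_Ctrl (Ctrl: baseline library sampled from a position-specific scoring matrix, with some repeated check sequences). Affinity was read by AlphaSeq, a pooled yeast mating assay with surface-displayed partners. Pairs that bind mate more often; barcode pairs of the diploids are counted by sequencing. Read counts were normalised to the haploid input and turned into Kd by a linear fit to BCL2-family pairs of known affinity, for each replicate. Mating was done six times.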

Substitutions are numbered in sequence along the VL above, starting at 1 (not Kabat).
Numbers give log10(Kd / nM), so 0 is 1 nM and 3 is 1 µM. Smaller is tighter.
A mean of the replicates is given; it leaves out those without a signal.
"n.d." means that the variant was in the library but no mating with the target was seen in that replicate; the authors take this as a sign of poor binding, and no number exists.
The authors averaged sequences with at least three values out of six and counted those with two or fewer as poor binders.
The parent sequence was in this pool as ten entries: three were never detected, three once, and four in most replicates, with averages from 0.34 to 2.37.
Nonspecific signal, from three strains lacking the peptide, appeared in 4% of pairings of all light chain designs, centred on 2.64 (5% of these signals below 1.59); values are not corrected for it. Also given: how often the same scFv was detected with the empty control strains, with their mean in brackets.
Values of this round are not directly comparable with the first-round values of the same sequences.

changes	log10 Kd, replicates	mean, log10 nM	signal with controls
N35Y/W56D	1.05 / 0.69 / 0.58 / 1.24 / 0.64 / 0.53	0.79	1/18 (1.48)
K24R/R60P	n.d. / n.d. / n.d. / n.d. / n.d. / n.d.	n.d.	0/18
S25R/S58N	n.d. / n.d. / n.d. / n.d. / n.d. / 1.86	1.86	1/18 (0.47)
S26Q/S28Q	n.d. / 3.12 / n.d. / n.d. / 2.89 / n.d.	3.01	1/18 (2.47)
V29D/W56S/S58T/S62V/L100P	n.d. / n.d. / n.d. / n.d. / n.d. / n.d.	n.d.	0/18
Q27M/S103M	1.41 / 1.43 / n.d. / 3.06 / 2.13 / 1.71	1.95	1/18 (2.06)
S25M/S38N/P101V	n.d. / n.d. / n.d. / n.d. / n.d. / n.d.	n.d.	0/18
Y31R/W56S/L100N/P101R/S103K	n.d. / n.d. / n.d. / n.d. / n.d. / n.d.	n.d.	0/18
Y31E/E32N/W56S	0.33 / 0.32 / 0.31 / 0.07 / 0.37 / 0.52	0.32	3/18 (3.01)
Y31F/E61A	1.26 / 2.43 / 1.78 / 3.54 / 1.81 / 1.31	2.02	1/18 (2.69)
K24M/W56E/A57I/L100M	1.19 / 1.18 / 1.28 / 0.92 / 1.66 / 1.75	1.33	0/18
R34L/N37Y	n.d. / 1.73 / 1.91 / 0.89 / 1.59 / 1.49	1.52	0/18
S28A/S62D/H98M	0.78 / 0.77 / 0.17 / 0.35 / 0.33 / 0.36	0.46	1/18 (1.75)
S25I/L30W/R34H/L102C	n.d. / n.d. / n.d. / n.d. / n.d. / n.d.	n.d.	2/18 (2.19)
K36I/W56M/S62Y/P101E	n.d. / n.d. / n.d. / n.d. / n.d. / n.d.	n.d.	0/18
L30M/Y31A/W56E/Q96G	1.46 / 1.56 / 1.58 / 1.87 / 2.65 / 1.70	1.80	0/18
S25F/S26P	0.81 / 0.60 / 0.74 / 0.75 / 0.43 / 0.89	0.70	0/18
S25I/S33G/T59V/S62R	1.62 / 1.85 / 1.03 / 1.29 / 1.20 / 1.33	1.39	0/18
S33E/K36G/W56N/S103W	1.56 / 2.20 / 1.21 / 1.39 / 1.73 / 2.06	1.69	0/18
R34Q/K36E	1.48 / 1.57 / 1.16 / 1.35 / 1.19 / 2.06	1.47	0/18
Y31G/N37T	n.d. / n.d. / n.d. / n.d. / n.d. / n.d.	n.d.	0/18
S33E/R34S/W56D	0.55 / -0.19 / 0.06 / 0.16 / -0.14 / 0.23	0.11	1/18 (2.33)
S25I/V29C	0.59 / 0.38 / 1.01 / 0.28 / 0.59 / 0.37	0.54	0/18
L30E/R34Q/W56Q	0.70 / 0.21 / -0.14 / 0.23 / 0.46 / 0.13	0.26	1/18 (2.71)
Q27K/V29N/Y31M/W56K	1.61 / 1.08 / 1.17 / 0.87 / 2.04 / 2.74	1.59	3/18 (2.75)
L30M/Y31N/T59K/S62A/H98S	1.53 / 2.22 / 1.92 / 1.68 / 1.69 / 2.19	1.87	1/18 (2.78)
S25T/S26Q/Q27N/S28N/R34H/S62N	1.11 / 1.86 / 2.50 / 1.65 / 1.27 / 1.78	1.70	0/18
L30E/W56E	0.35 / 0.15 / 0.38 / -0.03 / 0.41 / 0.10	0.23	1/18 (2.93)
R34V/T59L/Q95M/H98I	n.d. / n.d. / n.d. / n.d. / n.d. / n.d.	n.d.	0/18
S28H/R34T/A57S	1.70 / 1.75 / 1.76 / 2.01 / 2.29 / 2.73	2.04	2/18 (2.15)
S25Y/S26T/R34N/W56H	0.34 / 0.32 / 0.03 / -0.11 / 0.04 / 0.10	0.12	0/18
S28Q/W56R	n.d. / n.d. / n.d. / n.d. / n.d. / n.d.	n.d.	0/18
L30F/W56H/Q96H/Y97K	n.d. / n.d. / n.d. / n.d. / n.d. / n.d.	n.d.	0/18
S33M/R34W/K36T/W56A	2.13 / 1.97 / n.d. / 1.64 / 2.46 / 1.76	1.99	0/18
S25I/V29S/L30M/N37D/W56Q	-0.36 / -0.65 / -0.57 / -0.20 / -0.56 / -0.57	-0.48	0/18
S33E/W56D/E61P/S62A	0.61 / 0.38 / 0.52 / 0.45 / 0.43 / 0.65	0.51	2/18 (2.91)
Y31G/W56T	1.18 / 1.27 / 0.89 / 1.50 / 1.46 / 1.21	1.25	2/18 (2.59)
V29D/Y31D/W56Q/S58H	0.33 / 0.22 / 0.05 / 0.27 / 0.22 / 0.21	0.22	0/18
S28A/V29L/S62A/Q96D/L102N	n.d. / n.d. / n.d. / n.d. / 2.66 / 2.33	2.49	1/18 (1.99)
Q27Y/R34D	1.66 / 2.35 / 1.82 / 1.47 / 1.23 / 2.42	1.82	1/18 (3.22)
L30V/N35M/S38P/Q96W/P101A/L102E	n.d. / n.d. / n.d. / n.d. / n.d. / n.d.	n.d.	0/18

Repeated from above, the 4 best binders with a signal in all replicates:

| changes | log10 Kd, replicates | mean, log10 nM | signal with controls |
|---|---|---|---|
| S25I/V29S/L30M/N37D/W56Q | -0.36 / -0.65 / -0.57 / -0.20 / -0.56 / -0.57 | -0.48 | 0/18 |
| S33E/R34S/W56D | 0.55 / -0.19 / 0.06 / 0.16 / -0.14 / 0.23 | 0.11 | 1/18 (2.33) |
| S25Y/S26T/R34N/W56H | 0.34 / 0.32 / 0.03 / -0.11 / 0.04 / 0.10 | 0.12 | 0/18 |
| V29D/Y31D/W56Q/S58H | 0.33 / 0.22 / 0.05 / 0.27 / 0.22 / 0.21 | 0.22 | 0/18 |

From the AlphaSeq antibody data of Li et al. 2023 (doi:10.1038/s41467-023-39022-2), copy in the FLAb collection.